Measurements: patent US20220062240A1, “METHODS OF TREATING CANCER USING A CLK INHIBITOR” (BioSplice Therapeutics, Inc., priority 2018, published 2022)

Sequences of proteins named here, by UniProt entry; tags and fusion partners are left off.
UniProt P49760, whole entry: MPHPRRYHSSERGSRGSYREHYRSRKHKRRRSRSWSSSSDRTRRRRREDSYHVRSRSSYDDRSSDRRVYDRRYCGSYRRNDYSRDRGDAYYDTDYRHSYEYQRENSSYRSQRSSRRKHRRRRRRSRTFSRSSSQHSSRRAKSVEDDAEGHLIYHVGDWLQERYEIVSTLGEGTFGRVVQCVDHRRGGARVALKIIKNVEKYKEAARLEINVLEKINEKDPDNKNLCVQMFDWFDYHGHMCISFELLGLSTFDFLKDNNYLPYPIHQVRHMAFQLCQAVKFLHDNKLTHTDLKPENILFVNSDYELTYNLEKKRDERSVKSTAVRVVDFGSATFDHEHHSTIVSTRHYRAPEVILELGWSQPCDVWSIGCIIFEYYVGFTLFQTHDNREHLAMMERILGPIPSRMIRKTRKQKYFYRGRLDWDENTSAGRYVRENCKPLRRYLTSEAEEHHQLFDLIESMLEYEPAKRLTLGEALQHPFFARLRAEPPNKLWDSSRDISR

Target: T1, CLK2 (Homo sapiens, UniProt P49760)
T1 construct: purchased Thermo Fisher (Life Technologies), Z'-LYTE Kinase Assay Kits
Assay: CLK2 kinase activity assay (Z-lyte, Ser/Thr 6 peptide)
Type: biochemical
Conditions: Table 8 and text

Q: With `CN1CCN(c2cc(C(=O)Nc3cc4cc(-c5cnn(C)c5)ccc4cn3)ccn2)CC1` [Compound 12] as the compound, how does the IC50 read?
A: 2 nM
